For this experiment, the system named is trypsin. Put plainly: Biotinylated FP labeling of protease, SDS-PAGE and avidin blotting. Format: binding.

On to “10-(fluoroethoxyphosphinyl)-N-(biotinamidopentyl)-decanamide”, for which the labeling of trypsin result is on record as “reacted strongly with free trypsin”.

These data come from patent US6872574B2, “Proteomic analysis” (The Scripps Research Institute, priority 2000, dated 2005).
